Reference: patent publication US7074412B2, “Pharmaceutical composition” (The University of Zurich, priority 2003, dated 2006)

Tested on: standardized defects in the calvarial bone of rabbits
Test: bone regeneration in standardized calvarial bone defects (guided bone regeneration)
Type: in vivo, New Zealand white rabbits
Conditions: same animal model, comparable to NMP treated PLGA membrane; results not shown
Text: The size of the defect was below the critical size defect and was selected to resemble the typical magnitude of an osteotomy gap in maxillofacial surgery and defects in dentistry [Klinge, B., et al., J Oral Maxillofac Surg 50 (1992) 241–249].
The digital image of the vertical section from the middle of the defect was taken with a scale (mm) in order to localize the defect margins, which were 6 mm apart. In combination with the calvarial bone thickness of the surrounding bone the total area of the defect could be reconstructed. Using the Adobe Photoshop 5.0 program the total pixel number of the defect area could be determined. The part of the total defect filled by bone was also determined and expressed by the pixel number of the bony area. Percentage of bone healing was calculated as follows:
Bone healing [%]=pixel number of the bone area×100/total pixel number of defect.
To evaluate the bone regeneration, standardized defects were generated in the calvarial bone of rabbits. New Zealand white rabbits (3.5–4.0 kg) were treated according to the guidelines of the local authorities. The protocol for these studies was approved and controlled by the kantonalem Verterinäramt, Zurich. After sedation four 6 mm craniotomy defects were created with a 6 mm trephine in a dental hand piece. To seal the defects from the dural side 6.1 mm in diameter membrane was poked through the calvarial bone. […]

rhBMP-2: osteoinductive recombinant bone morphogenetic protein 2, set forth in SEQ ID NO:1
amount needed to obtain a comparable magnitude of bone regeneration: 15 µg
